Values quoted from earlier work, collected in patent publication US7572808B2, “Triazolopyridine cannabinoid receptor 1 antagonists” (Bristol-Myers Squibb Company, priority 2005, dated 2009).

Settings: chronic administration for two weeks

Cc1c(C(=O)NN2CCCCC2)nn(-c2ccc(Cl)cc2Cl)c1-c1ccc(I)cc1 [AM-251]
adipose tissue mass: decreased adipose tissue mass
